One compound from ChEMBL document CHEMBL6120977, “Structure-Affinity-Pharmacokinetics Relationships of Novel 18F-Labeled 1,4-Diazepane Derivatives for Orexin 1 Receptor Imaging” (J Med Chem, 2024) can be followed below.

By UniProt entry, the sequences of proteins in these tests, tags left out.
UniProt O43613, whole entry: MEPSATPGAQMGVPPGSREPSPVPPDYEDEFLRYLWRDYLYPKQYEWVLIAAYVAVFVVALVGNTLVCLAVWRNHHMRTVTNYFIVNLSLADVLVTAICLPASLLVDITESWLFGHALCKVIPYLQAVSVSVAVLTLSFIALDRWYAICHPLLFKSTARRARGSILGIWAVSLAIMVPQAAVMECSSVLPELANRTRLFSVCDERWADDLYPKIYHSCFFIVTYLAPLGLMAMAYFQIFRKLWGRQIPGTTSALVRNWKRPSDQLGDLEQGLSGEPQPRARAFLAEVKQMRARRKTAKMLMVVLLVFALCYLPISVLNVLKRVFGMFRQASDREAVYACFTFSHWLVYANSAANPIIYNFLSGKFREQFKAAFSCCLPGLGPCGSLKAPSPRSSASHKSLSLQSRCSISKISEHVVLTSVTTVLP

pKi: −log10 of the molar value.

This assay concerns the target Orexin/Hypocretin receptor type 1 (Homo sapiens, UniProt O43613). Description: Displacement of […]5IBOM from OX1R (unknown origin) transfected in CHO cells assessed as inhibition constant incubated for 1.5 hrs by automated gamma-counter analysis. In kind it is cell-based. On the technique in general: Displacement assays read how much labelled ligand stays bound in the presence of the test substance.

Take `CNC(=O)[C@@H](c1ccccc1)N1CCc2cc(OC)c(OC)cc2[C@@H]1CCc1ccc(C(F)(F)F)cc1` [ALMOREXANT]: the pKi was 8.57.

For orientation: pKi means the negative decadic logarithm of the Ki, by convention in mol/L.
